koff data for one substance are collected here from article PMC9416875.

In this assay the target is integrin αMβ2 ectodomain with ACID/BASE C-terminal coiled-coil heterodimerization domain (human) (UniProt P11215). Put plainly: SPR. The settings on record: domain or fragment.

Turning to “RTX751 (Bordetella pertussis adenylate cyclase toxin, ACT, residues 751-1,706) (from UniProt P0DKX7 751-1706)”, the koff was found to be 0.0044 s⁻¹.

By koff is commonly meant the rate constant with which the complex falls apart. High values mean a short-lived complex, low ones a long-lived complex.
